In US11608326B2, “Synthetic receptors for ionophoric compounds” (Universiteit Gent, priority 2018, dated 2023):

Tests used:
HepG2 cells = assay: NR assay, HepG2 cells, 24 h incubation with beauvericin and receptor; type: cell-based; settings: 15 μM BEA alone
Description: HepG2 cells were grown in T25 or T75 flasks containing 4 ml or 12 ml of growth medium respectively. The growth medium contained: 10% foetal bovine serum, 1% antibiotics (Pen Strep, 10000 units/ml Penicillin+10000 μg/ml Streptomycin, purchased from Gibco, Thermofisher), 1% non-essential amino acids and cell medium (Dulbecco's Modified Eagle Medium+GlutaMAX, purchased from Gibco, Thermofisher). Cells were incubated in an atmosphere containing 5% CO2. 96-Well plates were prepared containing 0.2 ml of growth medium and 40.000 cells/well. […] The resulting plates are then incubated overnight. The growth medium was removed from the plate and the wells were filled with 200 μL of the appropriate treatment condition. Taking the 5 μM BEA+10 eq V1 treatment condition as an example: 20 μL from a 6.38·10^−3 M stock solution of BEA (in DMF) is added to 80 μL DMF (=solution A). From a stock solution of V1 (1.82·10^−5 M in DMF), 50 μL is taken and added to 50 μL DMF (=solution B). Then 16.5 μL is taken from this solution and added to a mixture containing 23.5 μL of solution A and 20 μL DMF. This solution was subsequently added to 5940 μL of growth medium. […]
After the treatment, each well was washed once with growth medium (without antibiotics nor serum). […] After 20 min, the UV-VIS absorbance is measured at 540 nm using a plate reader.

[1] = mice, intraperitoneally 5 mg/kg bw for three consecutive days; cited from earlier work

Substance: beauvericin
- cell survival (NR assay), toxin alone (HepG2 cells): had died
- bioaccumulation [1]: bioaccumulation in the liver and lipophilic tissue was observed
